Protein sequences, listed by entry. Tags and fused reporters are not part of them.
UniProt Q9R0C9, whole entry: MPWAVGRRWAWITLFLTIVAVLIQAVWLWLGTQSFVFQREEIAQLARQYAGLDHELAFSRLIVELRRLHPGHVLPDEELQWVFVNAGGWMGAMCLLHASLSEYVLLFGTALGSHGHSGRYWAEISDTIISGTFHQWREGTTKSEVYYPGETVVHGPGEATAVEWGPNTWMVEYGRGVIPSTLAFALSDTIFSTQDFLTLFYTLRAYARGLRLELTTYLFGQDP

In patent EP3102204B1 (The University Of Mississippi, priority 2014, dated 2015):

Legend:
σ-1 = σ-1 (Rattus norvegicus, UniProt Q9R0C9); test: σ receptor assay: σ-1 binding with [3H](+)-pentazocine; conditions: rat brain homogenates; CM table
σ-2 = target: T1, σ-2 (Rattus norvegicus, UniProt Q5U3Y7); test: σ receptor assay: σ-2 binding with [3H]DTG plus (+)-pentazocine; conditions: σ-2 over σ-1
T1 construct: from tissue; host or cells: rat brain homogenate (membrane protein)
T1 sequence (Q5U3Y7 1-176): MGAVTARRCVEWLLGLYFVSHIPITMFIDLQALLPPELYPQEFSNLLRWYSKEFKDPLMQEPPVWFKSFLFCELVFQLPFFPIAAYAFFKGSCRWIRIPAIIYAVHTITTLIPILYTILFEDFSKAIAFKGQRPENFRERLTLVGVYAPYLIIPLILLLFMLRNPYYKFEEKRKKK

Cn1c(=O)n(CCCCN2CCN(C3CCCCC3)CC2)c2ccccc21 [CM 396]
Ki (σ-1): 50.2 ± 7.59 nM

CC(=O)c1ccc2c(c1)oc(=O)n2CCCCN1CCN(C2CCCCC2)CC1 [CM 142]
preference (selectivity) for the σ-2 subtype (σ-2): 7 fold

O=c1oc2ccccc2n1CCCCN1CCN(c2ccc(F)cc2)CC1 [CM 170]
preference (selectivity) for the σ-2 subtype (σ-2): 11 fold
